Data reported in patent publication US20210299101A1, “SYSTEMS, METHODS, AND KITS FOR DIAGNOSTICS AND TREATMENT OF VIRAL RESPIRATORY INFECTION” (priority 2020, published 2021).

Tests used:
SARS-CoV-2 [1] = format: in vivo
SARS-CoV-2 [2] = format: in vivo; remark: listed apart in the source
[3] = Brescia-COVID Respiratory Severity Scale, admitted patients only

## CNC(=O)c1ccc(N2C(=S)N(c3ccc(C#N)c(C(F)(F)F)c3)C(=O)C2(C)C)cc1F [enzalutamide]
SARS-CoV-2 [1]; [3]
  average BCRSS score of admitted patients: 6.2
SARS-CoV-2 [1]; monitored one month, enzalutamide 40 mg 4 tablets daily, combination arm of 180, enzalutamide only group of 160
  subjects admitted to the hospital after their first visit: 14 subjects
SARS-CoV-2 [2]; [3]
  average BCRSS score of admitted patients: 6.2
SARS-CoV-2 [2]; monitored one month, enzalutamide 40 mg 4 tablets daily, each arm of 100
  subjects admitted to the hospital after their first visit: 11 subjects

Where two headings read alike, the source gives them in different places.
